The assay concerns the target recombinant human TGM2 (Homo sapiens (Human), UniProt P21980). Description: Assay for quantification of TGM2 transglutaminase inhibitory activity (fluorescence, H-Abz-APE(CAD-DNP)QEA-OH substrate). As to conditions: read-out: IC50 values for inhibition of TGM2; recombinant human TGM2 25 μg/ml; substrate 50 μM, glycine methyl ester 5 mM; 15 min preincubation at room temperature; pH 7.5. The procedure: a) Assay Method for the Quantification of TGM2 Transglutaminase Inhibitory Activity
The activity of the compounds for inhibition of TGM2 was determined with recombinant human TGM2 (Zedira GmbH, Darmstadt, Germany, Product Nr. T002) and the peptidic compound H-Abz-APE(CAD-DNP)QEA-OH as substrate (Zedira GmbH, Darmstadt, Germany, Product Nr. A102; CAD-DNP is N^ω-2,4-dinitrophenyl-cadaverine, i.e. the carboxylic acid group in the side chain of the respective glutamyl moiety is amidated with the primary amino group of N-(2,4-dinitrophenyl)pentane-1,5-diamine; cf. also K. Oertel et al., Anal. Biochem. 2007, 367: 152-158). For this purpose, 2 μl of a solution of different concentrations of the test compound in dimethyl sulfoxide was added to 28 μl of buffer (50 mM TRIS, 100 mM NaCl, 10 mM CaCl2, pH 7.5) and 10 μl of a TGM2 solution to give a TMG2 test concentration of 25 μg/ml, and the mixture incubated for 15 minutes at room temperature in a 96 half-well microtiter plate. The enzyme reaction was started by the addition of 10 μl of substrate solution containing H-Abz-APE(CAD-DNP)QEA-OH and glycine methyl ester hydrochloride in buffer to give test concentrations of H-Abz-APE(CAD-DNP)QEA-OH of 50 μM and of glycine methyl ester hydrochloride of 5 mM. The time course of the reaction was monitored with excitation at 318 nm and measurement at emission wavelength 418 nm in a microtiter plate reader (SpectraMax M5, Molecular Devices) over 15 minutes. Rates were calculated from the linear part of the curve (generally between 5 and 10 minutes). IC50 values were calculated from the means (duplicates) of a dilution series of the compound, using the software Softmax Pro (Version 4.8, Molecular Devices).

Amino acid sequences for entries named in this document (tags omitted).
UniProt P21980, whole entry: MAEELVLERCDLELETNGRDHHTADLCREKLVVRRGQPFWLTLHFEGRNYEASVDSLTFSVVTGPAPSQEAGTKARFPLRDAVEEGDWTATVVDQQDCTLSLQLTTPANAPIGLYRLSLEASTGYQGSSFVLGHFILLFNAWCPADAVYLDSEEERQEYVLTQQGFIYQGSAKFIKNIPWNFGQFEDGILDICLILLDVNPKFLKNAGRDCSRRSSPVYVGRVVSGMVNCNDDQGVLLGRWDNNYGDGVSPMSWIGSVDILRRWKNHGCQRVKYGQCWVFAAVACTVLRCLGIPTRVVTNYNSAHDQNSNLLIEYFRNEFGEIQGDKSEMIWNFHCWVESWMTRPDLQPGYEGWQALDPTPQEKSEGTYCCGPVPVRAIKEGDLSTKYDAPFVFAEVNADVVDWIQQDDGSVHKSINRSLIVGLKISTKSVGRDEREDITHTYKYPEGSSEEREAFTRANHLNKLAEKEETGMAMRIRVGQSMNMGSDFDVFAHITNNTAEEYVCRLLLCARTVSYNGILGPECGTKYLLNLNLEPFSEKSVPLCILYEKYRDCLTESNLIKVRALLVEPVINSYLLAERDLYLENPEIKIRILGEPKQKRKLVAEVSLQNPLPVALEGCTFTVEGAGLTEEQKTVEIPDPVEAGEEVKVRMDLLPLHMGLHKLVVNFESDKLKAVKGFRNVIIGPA

Three molecules from US9260454B2, “Isothiazolopyridine-2-carboxamides and their use as pharmaceuticals” (Sanofi, priority 2011, dated 2016) can be followed below.

One may read the IC50 as the concentration that gives 50% inhibition. As for `O=C(NC[C@H]1OC(O)[C@H](O)[C@@H](O)[C@H]1O)n1sc2ncccc2c1=O` (stereo partly drawn), the IC50 is 800 nM.
For the molecule `NS(=O)(=O)N1CCN(C(=O)n2sc3ncccc3c2=O)CC1`, the IC50 worked out at 200 nM.
Take `CS(=O)(=O)N1CCN(C(=O)n2sc3ncccc3c2=O)CC1`: the IC50 is 250 nM.
